Experimental findings from patent US20220389400 are described below.

This data set concerns the target amyloid precursor protein, APP751 isoform, P05067.

B1: SAS^N70Q (protein)
chain: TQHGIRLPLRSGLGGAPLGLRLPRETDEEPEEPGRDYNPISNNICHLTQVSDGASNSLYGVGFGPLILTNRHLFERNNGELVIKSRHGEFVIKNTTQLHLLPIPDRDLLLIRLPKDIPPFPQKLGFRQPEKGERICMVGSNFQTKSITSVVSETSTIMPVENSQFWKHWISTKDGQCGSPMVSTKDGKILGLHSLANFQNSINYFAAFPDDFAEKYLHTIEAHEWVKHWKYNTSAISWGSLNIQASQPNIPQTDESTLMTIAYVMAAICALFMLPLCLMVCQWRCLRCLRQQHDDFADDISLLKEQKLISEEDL
As for B1, the “APP-cleaving activity (Western blot, sAPPα antibody)” value is listed as “showed stronger activity than the original SAS”.

B2: SAS^d20 (protein)
chain: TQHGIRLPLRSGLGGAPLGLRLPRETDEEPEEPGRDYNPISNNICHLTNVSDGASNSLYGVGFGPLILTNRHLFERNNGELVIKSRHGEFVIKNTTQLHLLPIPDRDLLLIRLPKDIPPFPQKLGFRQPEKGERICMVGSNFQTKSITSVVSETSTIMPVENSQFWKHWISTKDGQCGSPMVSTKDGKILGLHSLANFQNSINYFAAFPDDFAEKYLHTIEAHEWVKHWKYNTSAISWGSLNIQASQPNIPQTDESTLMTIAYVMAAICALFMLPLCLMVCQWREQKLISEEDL
As to B2, the “SAS activity (FIG. 7)” value is “among the various versions of SAS, the SAS^d20 activity was the most outstanding”.
